Laboratory results: publication PMC10786919, “Design-rules for stapled peptides with in vivo activity and their application to Mdm2/X antagonists” (Nature Communications, 2024)

Chains of the proteins cited; added tags and fusions are not shown. A line that says so, or that is headed by a name, gives the form on record, which may keep a tag or linker.
UniProt Q00987, with tags, fused parts or gaps: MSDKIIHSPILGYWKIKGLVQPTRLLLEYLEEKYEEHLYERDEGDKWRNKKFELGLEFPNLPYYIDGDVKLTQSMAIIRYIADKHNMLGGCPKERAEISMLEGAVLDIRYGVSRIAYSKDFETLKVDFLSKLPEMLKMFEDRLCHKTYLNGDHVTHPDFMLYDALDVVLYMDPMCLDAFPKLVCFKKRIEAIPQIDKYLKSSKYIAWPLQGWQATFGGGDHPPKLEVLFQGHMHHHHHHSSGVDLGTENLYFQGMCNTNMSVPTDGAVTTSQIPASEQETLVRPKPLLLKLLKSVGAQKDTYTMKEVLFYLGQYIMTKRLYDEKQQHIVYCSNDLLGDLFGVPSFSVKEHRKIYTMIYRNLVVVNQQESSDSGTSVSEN

Legend:
[1] = Lactate dehydrogenase (LDH) release assay; type: cell-based
HCT116 cells = assay: Lactate dehydrogenase (LDH) release assay; type: cell-based
[2] = Nanoclick permeability assay
[3] = Experimental LogD (partition coefficient)
[4] = Solubility assay (kinetic solubility, PBS pH 7); type: physicochemical; settings: for solubility kinetic: kinetic from dmso stock
EPSA = type: physicochemical
[5] = Circular dichroism (CD) helicity; type: physicochemical
Description: A total of 5 µL of the 10 mM stock peptide was mixed with 45 µL of 100% methanol, and dried for 2 h in the SpeedVac concentrator (Thermo Scientific). The dried peptide was reconstituted in a buffer (1 mM Hepes pH 7.4 and 5% methanol) to a concentration of 1 mM. The peptide sample was placed in a quartz cuvette with a path length of 0.2 cm. The peptide concentration was determined by the absorbance of the peptide at […]. The CD spectrum was recorded from 300 to 190 nm using the Chirascan-plus qCD machine (Applied Photophysics, Surrey, UK), at 25 °C. All experiments were done in duplicates. The CD spectrum was converted to mean residue ellipticity before deconvolution and estimation of the secondary structure components of the peptide using the CDNN software (distributed by Applied Photophysics). Measurements were taken at least twice and were reported as arithmetic means.

[6] = system: Jump-In T-REx CHO-K1 BLA cells; type: cell-based
Description: This assay was based on Jump-In™ T-REx™ CHO-K1 BLA cells containing a stably integrated β-lactamase under the control of an inducible cytomegalovirus (CMV) promoter. Cells were maintained in Dulbecco’s […] Eagle Medium (DMEM) with 10% fetal bovine serum (FBS), Blasticidin, and Penicillin/Streptomycin and then transferred to 1.5 ml freezing vials and stored under liquid nitrogen in growth media containing 5% DMSO. […] Cells were seeded into a 384-well plate at a density of 4000 cells per well. Peptides were then dispensed to each well using a liquid handler, ECHO 555 and incubated for 16 h. The final working concentration of DMSO was 0.5%. β-lactamase activity was detected using the ToxBLAzer Dual Screen (Invitrogen), as per the manufacturer’s instructions. Measurements were carried out using the Envision multiplate reader (Perkin–Elmer). Counterscreen activity was defined as the amount of β-lactamase activity induced by tetracycline. Measurements were taken a minimum of three times (biological replicates) and values are reported as geometric means of the replicates.

human Mdm2 1–125 = biological target: T1, human Mdm2 1–125 (Homo sapiens, UniProt Q00987); assay: Mdm2 binding by competitive fluorescence anisotropy assay (FP binding)
T1 construct: GST (N); His6 (internal); TEV cleavage site (ENLYFQG) (internal); made in house; host or cells: BL21 (DE3) Rosetta T1R Escherichia coli

[7] = system: p53 responsive β-lactamase reporter in HCT116 cells; type: cell-based
[8] = system: CellSensor p53RE-bla HCT-116 Cell Line
[9] = 0% FBS 4Hr, read-out: LDH: Cytotoxicity assay EC50
[10] = 0% FBS 16Hr, read-out: LDH: Cytotoxicity assay EC50
[11] = 10% FBS 4Hr, read-out: LDH: Cytotoxicity assay EC50
[12] = 10% FBS 16Hr, read-out: LDH: Cytotoxicity assay EC50
[13] = 0% FBS 4Hr, read-out: TETCHO: Counterscreen EC50
[14] = 0% FBS 16Hr, read-out: TETCHO: Counterscreen EC50
[15] = 10% FBS 4Hr, read-out: TETCHO: Counterscreen EC50
[16] = 10% FBS 16Hr, read-out: TETCHO: Counterscreen EC50
[17] = 4 hours, 0% serum, read-out: TETCHO Counterscreen EC50
[18] = FP binding assay KD, Tween-20 <CMC
[19] = 0% FBS 4Hr, read-out: p53 reporter assay EC50
[20] = 0% FBS 16Hr, read-out: p53 reporter assay EC50
[21] = 10% FBS 4Hr, read-out: p53 reporter assay EC50
[22] = 10% FBS 16Hr, read-out: p53 reporter assay EC50
[23] = read-out: Cell EC50 (16 hr, 10% FBS), p53 reporter assay, 16 hr, 10% FBS
[24] = 4 hours, 0% serum, read-out: LDH Cytotoxicity assay EC50

Compound	logD [3]	solubility kinetic ([4]; aqueous buffer, pH 7, PBS) [µM]	CD % Helicity [5] [%]	EC50 [1, 9] [µM]	EC50 [1, 10] [µM]	EC50 [1, 11] [µM]	EC50 [1, 12] [µM]	LDH: Cytotoxicity assay % Effect (HCT116 cells; 0% FBS 4Hr) [%]	LDH: Cytotoxicity assay % Effect (HCT116 cells; 0% FBS 16Hr) [%]	LDH: Cytotoxicity assay % Effect (HCT116 cells; 10% FBS 4Hr) [%]	LDH: Cytotoxicity assay % Effect (HCT116 cells; 10% FBS 16Hr) [%]	TETCHO: Counterscreen % Effect ([6]; 0% FBS 4Hr) [%]	EC50 [6, 13] [µM]	TETCHO: Counterscreen % Effect ([6]; 10% FBS 16Hr) [%]	EC50 [6, 16] [µM]	EC50 [6, 17] [µM]	p53 reporter assay % Effect ([7]; 0% FBS 4Hr) [%]	EC50 [7, 19] [µM]	p53 reporter assay % Effect ([7]; 10% FBS 16Hr) [%]	EC50 [7, 22] [µM]	further results
CC(=O)N[C@@H](CCCCN=[N+]=[N-])C(=O)NCCC(=O)N[C@@H](CC(C)C)C(=O)N[C@H](C(=O)N[C@@H](C)C(=O)N[C@]1(C)CCCCCCC=CCCC[C@@](C)(C(=O)N[C@@H](CO)C(=O)N[C@@H](C)C(=O)N[C@@H](C)C(N)=O)NC(=O)[C@H](CC(C)C)NC(=O)[C@H](CCC(N)=O)NC(=O)[C@H](C)NC(=O)[C@H](Cc2c[nH]c3ccccc23)NC(=O)[C@H](Cc2ccc(O)cc2)NC(=O)[C@H](CCC(=O)O)NC1=O)[C@@H](C)O [MP-624]	2.5	150 (≈ 282 µg/mL)																			EC50 ([1]; 0% FBS 4Hr, read-out: LDH: Cytotoxicity assay: EC50): > 50.7 µM; EC50 ([1]; 0% FBS 16Hr, read-out: LDH: Cytotoxicity assay: EC50): > 50.7 µM; EC50 ([1]; 10% FBS 4Hr, read-out: LDH: Cytotoxicity assay: EC50): > 50.7 µM; EC50 ([1]; 10% FBS 16Hr, read-out: LDH: Cytotoxicity assay: EC50): > 50.7 µM; LDH: Cytotoxicity assay: % Effect (HCT116 cells; 0% FBS 4Hr): -4.364%; LDH: Cytotoxicity assay: % Effect (HCT116 cells; 0% FBS 16Hr): 13.34%; LDH: Cytotoxicity assay: % Effect (HCT116 cells; 10% FBS 4Hr): 1.301%; LDH: Cytotoxicity assay: % Effect (HCT116 cells; 10% FBS 16Hr): 7.342%; cell entry EC50 [2]: 0.569 µM; EPSA (EPSA): 196 A^2
CC(C)C[C@@H](NC(=O)[C@@]1(C)CCCC=CCCC[C@@](C)(NC(=O)[C@@H](C)NC(=O)[C@@H](Cc2ccc(O)cc2)NC(=O)[C@@H](Cc2c[nH]c3cc(F)ccc23)NC(=O)[C@@H](C)NC(=O)[C@H](N)[C@H](C)O)C(=O)N[C@H](Cc2ccc(C(F)(F)F)cc2)C(=O)N[C@H](CCC(=O)O)C(=O)N[C@H](CCCCN)C(=O)N1)C(=O)N[C@H](CCCNC(=N)N)C(N)=O [MP-769, ^dPMI-d(6-10 staple), reference compound]			38.54	15.3	12.7	21.1	12.6	88.97	92.27	89.76	117.4	90.98	10.7	19.05	> 50.4	11	107.8	10.1	9.47	> 50.4	TETCHO: Counterscreen % Effect ([6]; 0% FBS 16Hr): 119.8%; EC50 [6, 14]: 17.9 µM; TETCHO: Counterscreen % Effect ([6]; 10% FBS 4Hr): 8.564%; EC50 [6, 15]: > 50.4 µM; Kd (human Mdm2 1–125; Binding KD): 0.12 µM; Kd (human Mdm2 1–125; [18]): 0.118 µM; p53 reporter assay % Effect ([7]; 0% FBS 16Hr): 137.7%; EC50 [7, 20]: 20 µM; p53 reporter assay % Effect ([7]; 10% FBS 4Hr): 42.39%; EC50 [7, 21]: 36.8 µM; Cell EC50 (16 hr, 10% FBS), p53 reporter assay ([7]; 16 hr, 10% FBS): inactive; EC50 [7, 23]: > 50 µM; logD ([3]; not stated, Partition Coeff LogD): 2.27; solubility kinetic ([4]; pH 7, aqueous buffer, pH 7, PBS): 74 µM (≈ 120 µg/mL)
CC(C)C[C@H]1NC(=O)[C@@H](CCCCN)NC(=O)[C@@H](CCC(=O)O)NC(=O)[C@@H](Cc2ccc(C(F)(F)F)cc2)NC(=O)[C@@H](CC(N)=O)NC(=O)[C@@](C)(NC(=O)[C@@H](Cc2ccc(O)cc2)NC(=O)[C@@H](Cc2c[nH]c3cc(F)ccc23)NC(=O)[C@@H](C)NC(=O)[C@H](N)[C@H](C)O)CCCCCCC=CCCC[C@](C)(C(N)=O)NC(=O)[C@@H](CC(C)C)NC1=O [MP-770, ^dPMI-d(5-12 staple), reference compound]			31.76	> 50.7	> 50.7	> 50.7	> 50.7	-0.5142	-2.565	-0.7512	4.487	57.28	15.6	-10.46	> 50.4	> 50	118.4	13.6	61.04	30.8	EC50 [1, 24]: > 50 µM; TETCHO: Counterscreen % Effect ([6]; 0% FBS 16Hr): 22.59%; EC50 [6, 14]: > 50.4 µM; TETCHO: Counterscreen % Effect ([6]; 10% FBS 4Hr): -9.087%; EC50 [6, 15]: > 50.4 µM; p53 reporter assay % Effect ([7]; 0% FBS 16Hr): 74.34%; EC50 [7, 20]: 17.4 µM; p53 reporter assay % Effect ([7]; 10% FBS 4Hr): 36.59%; EC50 [7, 21]: 39.1 µM; EPSA (physchem): 223 A^2; Partition Coeff LogD [3]: Poorly Behaved; Solubility [4]: P.B.; Solubility ([4]; pH 7, PBS): Poorly Behaved
CC(=O)N[C@@H](C(=O)N[C@H](C)C(=O)N[C@H](Cc1c[nH]c2cc(F)ccc12)C(=O)N[C@H](Cc1ccc(O)cc1)C(=O)N[C@@]1(C)CCCC#CC#CCCCC[C@](C)(C(=O)N[C@H](C)C(=O)N[C@H](C)C(=O)N[C@H](C)C(=O)N[C@H](C)C(=O)N[C@H](C)C(=O)N[C@H](C)C(N)=O)NC(=O)[C@@H](CC(C)C)NC(=O)[C@@H](CC(C)C)NC(=O)[C@@H](CCC(N)=O)NC(=O)[C@@H](CCC(=O)O)NC(=O)[C@@H](Cc2ccc(C(F)(F)F)cc2)NC(=O)[C@@H](CC(N)=O)NC1=O)[C@H](C)O [MP-793]	2.12	9 (≈ 19.1 µg/mL)	38.85	> 50.7			> 50.7	3.611			3.652	4.725	> 50.4	-29.66	> 50.4	> 50	112.4	3.97	62.12	0.305	EC50 [1, 24]: > 50 µM; Kd (human Mdm2 1–125; Binding KD): < 0.001 µM; Kd (human Mdm2 1–125; [18]): < 0.001 µM; higher potency versus MP-770 ([7]; 10% serum, 16-hour assay): > 102 x; EC50 ([7]; read-out: Cell EC50 (4 hr, 0% FBS), p53 reporter assay, 4 hr, 0% FBS): 4 µM; EC50 [7, 23]: 0.3 µM; EC50 (Ca Ski cell line; read-out: Cell Proliferation assay EC50, Ca-Ski, p53 Mut, Ca-Ski): > 49.8 µM; EC50 (Ca Ski cell line; read-out: Proliferation EC50 Ca Ski (Off-target), Ca Ski): > 50 µM; improved cell proliferation potency compared to MP-042 ([8]; HCT116): > 2 x; EC50 ([8]; read-out: Cell Proliferation assay EC50, HCT116, p53 WT): 0.648 µM; EC50 ([8]; read-out: Proliferation EC50 HCT116 (On-target)): 0.65 µM

Values after ≈ are worked out from the molar mass of the structure shown. Where two headings read alike, the source gives them in different places.
